US8969323B2, “Priming solutions for cardiopulmonary bypass” (XVIVO Perfusion AB, priority 2010, dated 2015)

Test: Oncotic pressure of Dextran 40 solutions measured against a 10 kDa cut-off membrane
Type: physicochemical
Source text: For the purpose of this application, a functional hyperoncotic pressure is an oncotic pressure such that when a solution with the functional hyperoncotic pressure is mixed with blood in the patient, the oncotic pressure in the blood is maintained within normal patient values. The reason for using this definition is because the effective oncotic pressure provided by a dextran solution mixed with blood in a patient cannot simply be calculated using van't Hoff's law. When oncotic pressure is measured in Dextran 40 solutions against a 10 kDa cut-off membrane, 35 g/l corresponds approximately to 37 mmHg or 1.3 times the oncotic pressure of plasma, 45 g/l corresponds approximately to 48 mmHg or about 1.7 times the oncotic pressure of plasma and 55 g/l corresponds approximately to 63 mmHg or about 2.1 times the oncotic pressure of plasma. However, the exact numbers will vary between measurement methods. The in vivo situation also immediately changes the functional oncotic pressure.

oncotic pressure (Dextran 40 solution 35 g/l): ~37 mmHg | oncotic pressure, times the oncotic pressure of plasma (Dextran 40 solution 35 g/l): ~1.3 times | oncotic pressure (Dextran 40 solution 45 g/l): ~48 mmHg | oncotic pressure, times the oncotic pressure of plasma (Dextran 40 solution 45 g/l): about 1.7 times | oncotic pressure (Dextran 40 solution 55 g/l): ~63 mmHg | oncotic pressure, times the oncotic pressure of plasma (Dextran 40 solution 55 g/l): about 2.1 times
Substance: Dextran 40
